Marks after values point to notes of the source that are not given here.
Key:
KK-Ay mice = assay: Weight gain-inhibiting action, hypoglycemic effect, insulin in blood plasma lowering action in KK-Ay mice
ICR mice = assay: Triglyceride (TG) in blood plasma increase-inhibiting action due to lipid administration; details: Mus musculus, po, 2 h, read-out: Inhibiting rate of TG-increase in blood plasma (5 mg/kg)
C57BL/6J mice = assay: Antifeeding activity (high fat diet intake up to 4 hours); assay type: in vivo; details: Mus musculus, male C57BL/6J mice, 5 mg/kg oral, food ingested up to 4 hours, read-out: Antifeeding rate (5 mg/kg)

SMILES | Weight gain-inhibiting action (KK-Ay mice; male KK-Ay mice, high fat diet, administration dose of 1 mg/kg/day oral, 2 weeks) [%*] | inhibition in vivo at 5 mg/kg (ICR mice) [%] | inhibition in vivo at 5 mg/kg (C57BL/6J mice) [%] | inhibition in vivo at 30 mg/kg (KK-Ay mice; Mus musculus, po, 336 h, read-out: Weight gain-inhibiting action (30 mg/kg/day)) [%]
CC(C)(COc1ccc(-c2ccc(-c3nc(C(F)(F)F)c[nH]3)cn2)cc1)C(=O)O [2,2-dimethyl-3-[4-[5-[4-(trifluoromethyl)-1H-imidazol-2-yl]-2-pyridyl]phenoxy]propanoic acid] | 35 | 72 | 66 | –
CC(C)(COc1ccc(-c2ccc(-c3ncc(C(F)(F)F)[nH]3)cn2)cc1)C(=O)O [Example 1-3), 2,2-dimethyl-3-(4-{5-[5-(trifluoromethyl)-1H-imidazol-2-yl]pyridin-2-yl}phenoxy)propanoic acid] | – | 77 | – | 67
CC(C)(COc1ccc(-c2ccc(-c3ncc(C4CCC4)[nH]3)cn2)cc1)C(=O)O [Example 55-2), 3-[4-[5-(5-cyclobutyl-1H-imidazol-2-yl)-2-pyridyl]phenoxy]-2,2-dimethylpropanoic acid] | – | 60 | – | –

Source: patent US9302996B2, “Continuous arycyclic compound” (MITSUBISHI TANABE PHARMA CORPORATION, priority 2010, dated 2016)
